{"source": "patent US7985561B2", "about": "(priority 2006, dated 2011)", "tested_on": "breast cancer patients", "note": "Read-outs that look alike come from different tables or passages of the source."}
{"smiles": "O=P1(N(CCCl)CCCl)NCCCO1", "note": "(stereo not drawn) [Cyclophosphamide]", "values": [{"measurement": "HR (95% CI), univariate", "setting": "5-year breast cancer survival, Ala/Ala vs Val/Val & Val/Ala (ref.), recessive model", "value": "2.96 (1.59-5.52)"}, {"measurement": "HR (95% CI), multivariate", "setting": "5-year breast cancer survival, Ala/Ala vs Val/Val & Val/Ala (ref.), recessive model, multivariate Cox regression", "value": "5.06 (2.39-10.7)"}, {"measurement": "HR (95% CI), multivariate", "setting": "5-year breast cancer survival, Ala/Ala vs Val/Val (ref.), multivariate Cox regression", "value": "20.3 (4.43-93.3)"}, {"measurement": "HR (95% CI), multivariate", "setting": "5-year breast cancer survival, Ala/Ala vs Val/Val (ref.), multivariate Cox regression, listed as cyclophosphamide", "value": 20.3}, {"measurement": "HR (95% CI), univariate", "setting": "5-year breast cancer survival, Ala/Ala vs Val/Val (ref.), patients receiving the drug-based chemotherapy", "value": "6.13 (2.06-18.3)"}, {"measurement": "HR (95% CI), univariate", "setting": "5-year breast cancer survival, Val/Ala & Ala/Ala vs Val/Val (ref.), dominant model", "value": "3.62 (1.29-10.1)"}, {"measurement": "HR (95% CI), multivariate", "setting": "5-year breast cancer survival, Val/Ala & Ala/Ala vs Val/Val (ref.), dominant model, multivariate Cox regression", "value": "3.39 (1.15-9.99)"}, {"measurement": "HR (95% CI), multivariate", "setting": "5-year breast cancer survival, Val/Ala vs Val/Val (ref.), multivariate Cox regression", "value": "1.88 (0.85-6.09)"}, {"measurement": "HR (95% CI), univariate", "setting": "5-year breast cancer survival, Val/Ala vs Val/Val (ref.), patients receiving the drug-based chemotherapy", "value": "2.70 (0.92-7.89)"}, {"measurement": "HR (95% CI), multivariate", "setting": "10-year breast cancer survival, Ala/Ala vs Val/Val & Val/Ala (ref.), recessive model, adjusted Cox regression", "value": "4.33 (2.18-8.58)"}, {"measurement": "HR (95% CI), univariate", "setting": "10-year breast cancer survival, Ala/Ala vs Val/Val & Val/Ala (ref.), recessive model, patients receiving the drug-based chemotherapy", "value": "2.75 (1.56-4.86)"}, {"measurement": "HR (95% CI), multivariate", "setting": "10-year breast cancer survival, Ala/Ala vs Val/Val (ref.), Cox regression adjusted for age, study site, race, tumor size, nodes, grade, ER, p53", "value": "22.1 (5.06-96.4)"}, {"measurement": "HR (95% CI), multivariate", "setting": "10-year breast cancer survival, Ala/Ala vs Val/Val (ref.), Cox regression adjusted for age, study site, race, tumor size, nodes, grade, ER, p53, listed as cyclophosphamide", "value": 22.1}, {"measurement": "HR (95% CI), univariate", "setting": "10-year breast cancer survival, Ala/Ala vs Val/Val (ref.), patients receiving the drug-based chemotherapy", "value": "5.81 (2.17-15.2)"}, {"measurement": "HR (95% CI), multivariate", "setting": "10-year breast cancer survival, Val/Ala & Ala/Ala vs Val/Val (ref.), dominant model, adjusted Cox regression", "value": "3.24 (1.23-8.54)"}, {"measurement": "HR (95% CI), univariate", "setting": "10-year breast cancer survival, Val/Ala & Ala/Ala vs Val/Val (ref.), dominant model, patients receiving the drug-based chemotherapy", "value": "3.63 (1.44-9.14)"}, {"measurement": "HR (95% CI), multivariate", "setting": "10-year breast cancer survival, Val/Ala vs Val/Val (ref.), Cox regression adjusted for age, study site, race, tumor size, nodes, grade, ER, p53", "value": "2.02 (0.71-5.72)"}, {"measurement": "HR (95% CI), univariate", "setting": "10-year breast cancer survival, Val/Ala vs Val/Val (ref.), patients receiving the drug-based chemotherapy", "value": "2.82 (1.08-7.36)"}]}
